The target in this assay is dopamine D2 receptor (Homo sapiens (Human), UniProt P14416). Nature of the assay: Radioligand binding assay, [3H]spiperone, membranes of D2 receptor expressing cells. The conditions noted are these: [3H]spiperone competition; read-out: Radioligand Binding Affinity (Ki, nM) D2.

By UniProt entry, the sequences of proteins in these tests, tags left out.
UniProt P14416, whole entry, species assumed: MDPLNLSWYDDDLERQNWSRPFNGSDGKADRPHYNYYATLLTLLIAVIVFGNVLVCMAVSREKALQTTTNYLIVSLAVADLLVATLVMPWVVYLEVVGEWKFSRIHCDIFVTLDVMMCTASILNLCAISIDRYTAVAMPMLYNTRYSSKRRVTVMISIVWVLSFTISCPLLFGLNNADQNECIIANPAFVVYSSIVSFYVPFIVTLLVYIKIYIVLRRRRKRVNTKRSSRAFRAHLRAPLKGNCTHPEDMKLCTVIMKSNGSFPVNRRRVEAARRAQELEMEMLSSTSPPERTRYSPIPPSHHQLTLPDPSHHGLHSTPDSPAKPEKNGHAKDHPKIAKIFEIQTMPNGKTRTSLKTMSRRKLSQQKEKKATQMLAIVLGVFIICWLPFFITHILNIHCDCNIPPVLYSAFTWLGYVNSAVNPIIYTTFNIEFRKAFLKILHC

As to `CS(=O)(=O)c1ccc2c(c1)N(CCCN1CCC(C(=O)O)CC1)c1ccccc1S2` [Metopimazine acid], the inhibitory constant (Ki) stood at 14 nM.

The term Ki denotes the dissociation constant of the complex between target and ligand, obtained from inhibition or displacement.

The values are drawn from patent publication US9132134B2, “Methods for treating GI tract disorders” (Neurogastrx, Inc., priority 2012, dated 2015).
